{"sequences": {"note": "Amino acid sequences for entries named in this document (tags omitted).", "UniProt P20272, whole entry": "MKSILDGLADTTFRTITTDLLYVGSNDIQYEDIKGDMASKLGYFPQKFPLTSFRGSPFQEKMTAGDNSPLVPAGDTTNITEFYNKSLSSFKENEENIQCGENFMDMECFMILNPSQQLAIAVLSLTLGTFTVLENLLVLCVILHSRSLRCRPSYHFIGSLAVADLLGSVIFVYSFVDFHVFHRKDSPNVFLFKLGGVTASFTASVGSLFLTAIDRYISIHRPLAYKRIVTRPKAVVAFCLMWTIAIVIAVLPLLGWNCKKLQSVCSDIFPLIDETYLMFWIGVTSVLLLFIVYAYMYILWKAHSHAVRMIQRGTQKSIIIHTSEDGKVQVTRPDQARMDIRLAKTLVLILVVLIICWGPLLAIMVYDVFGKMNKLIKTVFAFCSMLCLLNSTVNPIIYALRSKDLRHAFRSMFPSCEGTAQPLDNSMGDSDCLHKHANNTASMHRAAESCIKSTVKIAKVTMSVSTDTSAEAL"}, "source": "ChEMBL document CHEMBL1135957", "about": "“Novel 1',1'-chain substituted Delta(8)-tetrahydrocannabinols” (Bioorg Med Chem Lett, 2002)", "molecular_target": "Cannabinoid receptor 1 (Rattus norvegicus, UniProt P20272)", "test": "Binding affinity for Cannabinoid receptor 1 by the ability to displace radiolabeled CP-55940 from purified rat forebrain synaptosomes", "assay_type": "subcellular, Brain"}
{"molecule": "C=C(C)[C@@H]1CCC(C)=C[C@H]1c1c(O)cc(CCCCC)cc1O", "note": "[CANNABIDIOL]", "values": [{"measurement": "Ki", "result": 1.27, "unit": "µM"}]}
